The term Kd denotes the equilibrium constant for the complex coming apart. A lower Kd goes with tighter binding.

Sequences of proteins named here, by UniProt entry; tags and fusion partners are left off. A change or cut given only in a name is not applied to a line headed by its entry.
UniProt Q9Y572: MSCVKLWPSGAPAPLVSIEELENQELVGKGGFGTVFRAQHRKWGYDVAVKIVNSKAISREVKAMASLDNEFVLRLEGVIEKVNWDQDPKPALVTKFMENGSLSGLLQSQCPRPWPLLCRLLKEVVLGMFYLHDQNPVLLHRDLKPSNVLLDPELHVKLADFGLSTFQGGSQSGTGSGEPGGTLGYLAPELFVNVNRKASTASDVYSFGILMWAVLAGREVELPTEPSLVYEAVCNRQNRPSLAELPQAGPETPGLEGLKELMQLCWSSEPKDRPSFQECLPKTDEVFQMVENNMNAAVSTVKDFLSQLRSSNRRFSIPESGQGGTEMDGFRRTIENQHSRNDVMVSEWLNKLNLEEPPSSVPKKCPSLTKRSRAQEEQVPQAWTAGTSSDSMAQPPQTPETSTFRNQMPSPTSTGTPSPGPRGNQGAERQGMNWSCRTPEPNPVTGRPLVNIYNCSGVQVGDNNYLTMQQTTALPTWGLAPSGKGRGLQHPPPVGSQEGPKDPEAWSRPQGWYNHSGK

From patent publication US12583836B2 (Anaxis Pharma Pty Ltd, priority 2020, dated 2026) come the findings set out here.

The assay deals with T1, RIP3 (Homo sapiens, UniProt Q9Y572).
T1 construct: purchased DiscoverX (KINOMEscan service); host or cells: E. coli BL21-derived (T7 phage) or HEK293
The assay can be described thus: KINOMEscan binding assay, RIP3. The note with it: equilibrium dissociation constant, class symbols.
The compound `CCS(=O)(=O)Nc1ccc(-c2n[nH]c(Nc3cncc(C(F)(F)F)n3)c2C(N)=O)cc1` [Compound 44, 3-(4-(ethylsulfonamido)phenyl)-5-((6-(trifluoromethyl)pyrazin-2-yl)amino)-1H-pyrazole-4-carboxamide] gave an equilibrium dissociation constant (Kd) of more than 30 µM.
The same measure for `CCS(=O)(=O)Nc1ccc(-c2n[nH]c(Nc3cccc(C(F)(F)F)n3)c2C(N)=O)cc1OCc1ccccc1` [Compound 46, 3-(3-(benzyloxy)-4-(ethylsulfonamido)phenyl)-5-((6-(trifluoromethyl)pyridin-2-yl)amino)-1H-pyrazole-4-carboxamide]: more than 30 µM.
On to `NC(=O)c1c(-c2ccc(NS(=O)(=O)C(F)F)cc2)n[nH]c1Nc1ccccn1` [Compound 48, 3-(4-((difluoromethyl)sulfonamido)phenyl)-5-(pyridin-2-ylamino)-1H-pyrazole-4-carboxamide], for which the Kd was more than 30 µM.
The same measure for `CN(C)CCS(=O)(=O)Nc1ccc(-c2n[nH]c(Nc3cccc(C(F)(F)F)n3)c2C(N)=O)cc1` [Compound 51, 3-(4-((2-(dimethylamino)ethyl)sulfonamido)phenyl)-5-((6-(trifluoromethyl)pyridin-2-yl)amino)-1H-pyrazole-4-carboxamide]: more than 30 µM; for `NC(=O)c1c(-c2ccc(NS(=O)(=O)C(F)F)cc2)n[nH]c1Nc1cccc(C(F)(F)F)n1` [Compound 53, 3-(4-((difluoromethyl)sulfonamido)phenyl)-5-((6-(trifluoromethyl)pyridin-2-yl)amino)-1H-pyrazole-4-carboxamide]: 1 to 30 µM.
The compound `NC(=O)c1c(-c2ccc(NS(=O)(=O)Cc3ccc(F)cc3)cc2)n[nH]c1Nc1cccc(C(F)(F)F)n1` [Compound 55, 3-(4-(((4-fluorophenyl)methyl)sulfonamido)phenyl)-5-((6-(trifluoromethyl)pyridin-2-yl)amino)-1H-pyrazole-4-carboxamide] came in with a dissociation constant Kd of 1 to 30 µM.
The same measure for `NC(=O)c1c(-c2ccc(NS(=O)(=O)Cc3ccccc3Cl)cc2)n[nH]c1Nc1cccc(C(F)(F)F)n1` [Compound 58, 3-(4-(((2-chlorophenyl)methyl)sulfonamido)phenyl)-5-((6-(trifluoromethyl)pyridin-2-yl)amino)-1H-pyrazole-4-carboxamide]: 1 to 30 µM; for `CCS(=O)(=O)Nc1ccc(-c2n[nH]c(Nc3cccnn3)c2C(N)=O)cc1` [Compound 64, 3-(4-ethanesulfonamidophenyl)-5-[(pyridazin-3-yl)amino]-1H-pyrazole-4-carboxamide]: more than 30 µM; for `CCS(=O)(=O)Nc1ccc(-c2n[nH]c(Nc3cnc(C(C)C)cn3)c2C(N)=O)cc1` [Compound 66, 3-(4-(ethylsulfonamido)phenyl)-5-((5-isopropylpyrazin-2-yl)amino)-1H-pyrazole-4-carboxamide]: 1 to 30 µM.
As for `CC(C)(C)S(=O)(=O)Nc1ccc(-c2n[nH]c(Nc3cnccn3)c2C(N)=O)cc1` [Compound 69, 3-(4-((1,1-dimethylethyl)sulfonamido)phenyl)-5-(pyrazin-2-ylamino)-1H-pyrazole-4-carboxamide], the dissociation constant (Kd) is more than 30 µM.
`NC(=O)c1c(-c2ccc(NS(=O)(=O)c3cccc(C(F)(F)F)c3)cc2)n[nH]c1Nc1cnccn1` [Compound 73, 5-(pyrazin-2-ylamino)-3-(4-((3-(trifluoromethyl)phenyl)sulfonamido)phenyl)-1H-pyrazole-4-carboxamide] came in with a Kd of more than 30 µM.
Compound `NC(=O)c1c(-c2ccc(NS(=O)(=O)Cc3ccc(C(F)(F)F)cc3)cc2)n[nH]c1Nc1cnccn1` [Compound 76, 5-[(pyrazin-2-yl)amino]-3-(4-{[4-(trifluoromethyl)phenyl]methanesulfonamido}phenyl)-1H-pyrazole-4-carboxamide] showed a dissociation constant (Kd) of more than 30 µM.
The result for `NC(=O)c1c(-c2ccc(NS(=O)(=O)CC3CCC3)cc2)n[nH]c1Nc1cnccn1` [Compound 81, 3-(4-((cyclobutylmethyl)sulfonamido)phenyl)-5-(pyrazin-2-ylamino)-1H-pyrazole-4-carboxamide] reads more than 30 µM; that for `CCS(=O)(=O)Nc1ccc(-c2n[nH]c(Nc3cncc(C)n3)c2C(N)=O)cc1` [Compound 84, 3-(4-(ethylsulfonamido)phenyl)-5-((6-methylpyrazin-2-yl)amino)-1H-pyrazole carboxamide], 1 to 30 µM; that for `CCS(=O)(=O)Nc1ccc(-c2n[nH]c(Nc3ccc4ccccc4c3)c2C(N)=O)cc1` [Compound 86, 3-(4-(ethylsulfonamido)phenyl)-5-(naphthalen-2-ylamino)-1H-pyrazole-4-carboxamide], 1 to 30 µM.
With `CCS(=O)(=O)Nc1ccc(-c2n[nH]c(Nc3ccn(C)n3)c2C(N)=O)cc1` [Compound 91, 3-(4-(ethylsulfonamido)phenyl)-5-((1-methyl-1H-pyrazol-3-yl)amino)-1H-pyrazole-4-carboxamide], the Kd is more than 30 µM.
The result for `CCS(=O)(=O)Nc1ccc(-c2n[nH]c(Nc3cncc(OC)n3)c2C(N)=O)cc1` [Compound 99, 3-(4-(ethylsulfonamido)phenyl)-5-((6-methoxypyrazin-2-yl)amino)-1H-pyrazole-4-carboxamide] reads more than 30 µM.
The result for `CCS(=O)(=O)Nc1ccc(-c2n[nH]c(Nc3cnc(C)cn3)c2C(N)=O)cc1` [Compound 101, 3-(4-(ethylsulfonamido)phenyl)-5-((5-methylpyrazin-2-yl)amino)-1H-pyrazole-4-carboxamide] reads more than 30 µM.
The same measure for `CCS(=O)(=O)Nc1ccc(-c2n[nH]c(Nc3ccnc(C(F)(F)F)c3)c2C(N)=O)cc1` [Compound 104, 3-(4-(ethylsulfonamido)phenyl)-5-((2-(trifluoromethyl)pyridin-4-yl)amino)-1H-pyrazole-4-carboxamide]: more than 30 µM; for `CCS(=O)(=O)Nc1ccc(-c2n[nH]c(Nc3cccc(OC)n3)c2C(N)=O)cc1` [Compound 107, 3-(4-(ethylsulfonamido)phenyl)-5-((6-methoxypyridin-2-yl)amino)-1H-pyrazole-4-carboxamide]: 1 to 30 µM; for `CCS(=O)(=O)Nc1ccc(-c2n[nH]c(Nc3cnccn3)c2C(N)=O)cc1` [Compound 108, 3-(4-(ethylsulfonamido)phenyl)-5-(pyrazin-2-ylamino)-1H-pyrazole-4-carboxamide]: more than 30 µM.
On to `CCS(=O)(=O)Nc1ccc(-c2n[nH]c(Nc3cc(C)ncc3F)c2C(N)=O)cc1` [Compound 111, 3-(4-(ethylsulfonamido)phenyl)-5-((5-fluoro-2-methylpyridin-4-yl)amino)-1H-pyrazole-4-carboxamide], for which the Kd was more than 30 µM.
As to `CCS(=O)(=O)Nc1ccc(-c2n[nH]c(Nc3ccnc(C)c3)c2C(N)=O)cc1` [Compound 113, 3-(4-(ethylsulfonamido)phenyl)-5-((2-methylpyridin-4-yl)amino)-1H-pyrazole-4-carboxamide], the dissociation constant Kd is more than 30 µM.
The result for `COCCOc1cc(Nc2[nH]nc(-c3ccc(NS(=O)(=O)C(F)(F)F)cc3)c2C(N)=O)ccn1` [Compound 114, 5-((2-(2-methoxyethoxy)pyridin-4-yl)amino)-3-(4-((trifluoromethyl)sulfonamido)phenyl)-1H-pyrazole-4-carboxamide] reads 1 to 30 µM; that for `CCS(=O)(=O)Nc1ccc(-c2n[nH]c(NC)c2C(N)=O)cc1` [Compound 119, 3-(4-(ethylsulfonamido)phenyl)-5-(methylamino)-1H-pyrazole-4-carboxamide], more than 30 µM; that for `COCCOc1cc(Nc2[nH]nc(-c3ccc(NS(C)(=O)=O)cc3)c2C(N)=O)ccn1` [Compound 122, 5-((2-(2-methoxyethoxy)pyridin-4-yl)amino)-3-(4-(methylsulfonamido)phenyl)-1H-pyrazole-4-carboxamide], 1 to 30 µM.
The result for `CCS(=O)(=O)Nc1ccc(-c2n[nH]c(Nc3ccnc(OC)n3)c2C(N)=O)cc1` [Compound 123, 3-(4-(ethylsulfonamido)phenyl)-5-((2-methoxypyrimidin-4-yl)amino)-1H-pyrazole-4-carboxamide] reads more than 30 µM; that for `CCS(=O)(=O)Nc1ccc(-c2[nH]nc(Nc3ccnc(OCCOC)c3)c2C(N)=O)cc1` [Compound 127, 5-(4-(ethylsulfonamido)phenyl)-3-((2-(2-methoxyethoxy)pyridin-4-yl)amino)-1H-pyrazole-4-carboxamide], 1 to 30 µM.
The same measure for `NC(=O)c1c(-c2ccc(NS(=O)(=O)Cc3cccc(Cl)c3)cc2)n[nH]c1Nc1ccccn1` [Compound 129, 3-(4-(((3-chlorophenyl)methyl)sulfonamido)phenyl)-5-(pyridin-2-ylamino)-1H-pyrazole-4-carboxamide]: 1 to 30 µM; for `Cc1ccc(CS(=O)(=O)Nc2ccc(-c3n[nH]c(Nc4ccccn4)c3C(N)=O)cc2)cc1` [Compound 132, 5-(pyridin-2-ylamino)-3-(4-((p-tolylmethyl)sulfonamido)phenyl)-1H-pyrazole-4-carboxamide]: more than 30 µM; for `NC(=O)c1c(-c2ccc(NS(=O)(=O)CC(F)(F)F)cc2)n[nH]c1Nc1cnccn1` [Compound 137, 5-(pyrazin-2-ylamino)-3-(4-((2,2,2-trifluoroethyl)sulfonamido)phenyl)-1H-pyrazole-4-carboxamide]: more than 30 µM.
Consider `NC(=O)c1c(-c2ccc(NS(=O)(=O)CC(F)(F)F)cc2OCc2ccc(F)cc2)n[nH]c1Nc1cnccn1` [Compound 139, 3-(2-((4-fluorobenzyl)oxy)-4-((2,2,2-trifluoroethyl)sulfonamido)phenyl)-5-(pyrazin-2-ylamino)-1H-pyrazole-4-carboxamide], for which the Kd was more than 30 µM.
As to `CCS(=O)(=O)Nc1ccc(-c2n[nH]c(Nc3cnccn3)c2C(N)=O)cc1OCc1c(C)cc(F)cc1C` [Compound 142, 3-(4-(ethylsulfonamido)-3-((4-fluoro-2,6-dimethylbenzyl)oxy)phenyl)-5-(pyrazin-2-ylamino)-1H-pyrazole-4-carboxamide], the Kd is more than 30 µM.
The same measure for `COc1cnc(Nc2[nH]nc(-c3ccc(NS(=O)(=O)CC(F)(F)F)c(OCc4ccc(F)cc4)c3)c2C(N)=O)cn1` [Compound 143, 3-(3-((4-fluorobenzyl)oxy)-4-((2,2,2-trifluoroethyl)sulfonamido)phenyl)-5-((5-methoxypyrazin-2-yl)amino)-1H-pyrazole-4-carboxamide]: more than 30 µM.
